Measurements published in published antibiotic growth screens (doi:10.1038/s41589-023-01349-8).
The other results are listed elsewhere or left out.

system: A. baumannii ATCC 17978; test: relative growth (fraction of control); higher = less inhibition; details: 50 µM

`CO[C@@H]1CN(C)C(=O)c2cc(NC(=O)c3ccccc3)ccc2OC[C@@H](C)N(C(=O)CN(C)C)C[C@@H]1C` was tested. Which relative growth did it give?
The relative growth was 1.15.

Which relative growth does the source give for `C[C@@H]1CN([C@@H](C)CO)S(=O)(=O)c2ccc(C#CCN(C)C)cc2O[C@@H]1CN(C)C(=O)C1CCCCC1` here?
Its relative growth is 0.923.

`CS(=O)(=O)N(CCC#N)Cc1ccco1` was tested. Which relative growth did it give?
The relative growth was 0.998.

With `NC[C@H]1O[C@H](O[C@H]2[C@H](O)[C@@H](O[C@H]3O[C@H](CO)[C@@H](O)[C@H](N)[C@H]3O)[C@H](N)C[C@@H]2N)[C@H](N)[C@@H](O)[C@@H]1O.O=S(=O)(O)O` as the molecule, how does the relative growth read?
The relative growth was 0.153.

`COc1ccc2c3c1O[C@H]1C[C@@H](O)C=C[C@@]31CCN(C)C2` was tested. Which relative growth did it give?
Its relative growth is 1.03.

`COc1ccccc1C#Cc1ccc2c(c1)O[C@@H](CN(C)C(C)=O)[C@H](C)CN([C@@H](C)CO)S2(=O)=O` was tested. Which relative growth did it give?
The relative growth was 0.823.

For `COCCOC(=O)N1C(=O)[C@@]2(c3cc(C#CC4=CCCCC4)ccc31)[C@H](c1ccc(O)cc1)N1[C@H](c3ccccc3)[C@H](c3ccccc3)OC(=O)[C@H]1[C@@H]2C(=O)N1CCN(c2ncccn2)CC1`, which relative growth is on record?
Its relative growth is 0.966.

For `O=C(C[C@H]1CC[C@H]2[C@@H](COC[C@@H](O)CN2S(=O)(=O)c2ccc(Cl)cc2)O1)N[C@H]1CCN(Cc2ccccc2)C1`, which relative growth is on record?
The relative growth was 0.937.

For `O=C(C[C@@H]1CC=CCCC(=O)OC[C@@H](Cc2c[nH]c3ccccc23)NC1=O)N[C@H](CO)Cc1ccccc1`, which relative growth is on record?
Its relative growth is 0.905.

For `O=C(C[C@@H]1CC[C@H]2[C@@H](COC[C@@H](O)CN2Cc2cccc(C(F)(F)F)c2)O1)NCCc1ccncc1`, which relative growth is on record?
Its relative growth is 0.887.

Which relative growth does the source give for `CN(C)c1nc(NCCO)c2cnn(C)c2n1` here?
The relative growth was 0.966.

Which relative growth does the source give for `COc1ccc(S(=O)(=O)N[C@@H]2CC[C@H](CCNC(=O)CN3CCOCC3)O[C@H]2CO)cc1` here?
Its relative growth is 1.09.

For `C/C=C/C(=O)c1cc(Cl)ccc1O`, which relative growth is on record?
Its relative growth is 0.941.

How did the relative growth turn out when `CCOC(=O)C1=NNC[C@@H]1C(=O)OCC` was run?
Its relative growth is 1.07.

Which relative growth does the source give for `Cc1nc(N)c(C(=O)O)nc1C` here?
Its relative growth is 0.901.

For `COCC(=O)Nc1ccc2c(c1)OC[C@H](C)N(C(=O)Cc1cccnc1)C[C@@H](C)[C@@H](OC)CN(C)C2=O`, which relative growth is on record?
Its relative growth is 1.07.

How did the relative growth turn out when `COc1cc2c(cc1OC)[C@@H]1C(=O)c3ccc4c(c3O[C@@H]1CO2)C=CC(C)(C)O4` was run?
The relative growth was 1.48.

`S=c1[nH]cnc2nc[nH]c12` was tested. Which relative growth did it give?
Its relative growth is 1.06.

For `CN(C)CCCCCCNC(=O)[C@@H]1C[C@@H]2C(=O)N[C@@H](CCCC[N+](C)(C)C)C(=O)N2[C@@H]1c1cccc(OCCO)c1`, which relative growth is on record?
The relative growth was 0.985.

`CC(=O)n1cc([C@@H]2C=C(C(=O)N3CCN(C)CC3)O[C@H](OCc3ccc(CO)cc3)C2)c2ccccc21` was tested. Which relative growth did it give?
Its relative growth is 0.877.

For `CCCCCCCCNC(C)C(O)c1ccc(SC(C)C)cc1` (configuration not stated), which relative growth is on record?
The relative growth was 0.364.

How did the relative growth turn out when `CNCC[C@@H](Oc1ccccc1C)c1ccccc1.Cl` was run?
Its relative growth is 1.11.

`CCNC(=O)C[C@H]1C=C[C@H](NC(=O)C2CC2)[C@H](CO)O1` was tested. Which relative growth did it give?
The relative growth was 0.982.

With `CN1C(=O)[C@@H]2[C@@H](C(=O)c3ccccn3)[C@@H]2C1=O` as the molecule, how does the relative growth read?
Its relative growth is 0.86.

With `O=C(C[C@@H]1C=C[C@H](NC(=O)CN2CCOCC2)[C@@H](CO)O1)NCCc1ccncc1` as the molecule, how does the relative growth read?
The relative growth was 1.

Which relative growth does the source give for `CC1(C)O[C@@H]2CC3C4C[C@H](F)C5=CC(=O)C=C[C@]5(C)[C@@]4(F)[C@@H](O)C[C@]3(C)[C@]2(C(=O)CO)O1` (some centres not stated) here?
Its relative growth is 1.15.

For `CO[C@H]1CN(C)C(=O)c2cc(NC(=O)c3ccc(F)cc3)ccc2OC[C@H](C)N(C(=O)CN(C)C)C[C@H]1C`, which relative growth is on record?
The relative growth was 1.02.

Which relative growth does the source give for `O=C1Nc2ccccc2Oc2cc(Sc3ccccc3)ccc21` here?
The relative growth was 1.15.

Which relative growth does the source give for `CN(C)CCCNC(=O)C[C@@H]1C=C[C@H](NS(=O)(=O)c2ccccc2)[C@@H](CO)O1` here?
Its relative growth is 1.01.

With `Cn1cnc(S(=O)(=O)N2C[C@@H](O)COC[C@@H]3O[C@@H](CC(=O)NCc4ccc(F)cc4)CC[C@H]32)c1` as the molecule, how does the relative growth read?
The relative growth was 1.28.

`COc1ccc(C#Cc2ccc3c(c2)[C@@]2(C(=O)N3C(=O)N[C@@H](C)c3ccccc3)[C@H](c3ccc(OCCO)cc3)N3[C@H](c4ccccc4)[C@H](c4ccccc4)OC(=O)[C@H]3[C@@H]2C(=O)O)cc1` was tested. Which relative growth did it give?
The relative growth was 1.35.

`N=C(N)NCCCCNC(=N)N.O=S(=O)(O)O` was tested. Which relative growth did it give?
The relative growth was 0.948.

For `CC(C)[C@@H]1CC[C@@H](C)CC1=O`, which relative growth is on record?
Its relative growth is 1.01.

For `CC(=O)c1cc2ccccc2s1`, which relative growth is on record?
The relative growth was 0.941.

How did the relative growth turn out when `Nc1nc(C(F)(F)F)ncc1C(=O)O` was run?
The relative growth was 1.08.

Which relative growth does the source give for `O=C(C[C@H]1C[C@H]2c3cc(NS(=O)(=O)c4ccc(F)cc4)ccc3O[C@H]2[C@H](CO)O1)NC1CCCC1` here?
Its relative growth is 0.956.

With `O=C(NO)c1ccc(C(=O)N/N=C/[C@H](O)[C@@H](O)[C@H](O[C@@H]2O[C@H](CO)[C@H](O)[C@H](O)[C@H]2O)[C@H](O)CO)cc1` as the molecule, how does the relative growth read?
Its relative growth is 1.1.

How did the relative growth turn out when `COC(=O)c1c(C)c2c(c(C)c1O)OC(=O)c1c(C)c(Cl)c(O)c(Cl)c1O2` was run?
The relative growth was 0.903.

`Cc1ccc(S(=O)(=O)N[C@H]2CC[C@H](CCNC(=O)CN3CCOCC3)O[C@H]2CO)cc1` was tested. Which relative growth did it give?
The relative growth was 1.14.

`C[C@@H]1CN([C@H](C)CO)S(=O)(=O)c2ccc(C3=CCCC3)cc2O[C@@H]1CN(C)C(=O)Cc1ccncc1` was tested. Which relative growth did it give?
The relative growth was 0.972.

For `Cc1ccc(C)c(OCCCC(C)(C)C(=O)O)c1`, which relative growth is on record?
The relative growth was 0.999.

Which relative growth does the source give for `O=C(C[C@H]1C=C[C@@H](NC(=O)C2CC2)[C@H](CO)O1)NCCCN1CCOCC1` here?
Its relative growth is 0.984.

For `O=C(CS)NCCCCCCNC(=O)[C@@H]1C[C@@H]2C(=O)NCC(=O)N2[C@@H]1c1cccc(OCCO)c1`, which relative growth is on record?
The relative growth was 0.987.

Which relative growth does the source give for `COc1c(-c2ccccc2)oc2c(ccc3ccoc32)c1=O` here?
The relative growth was 1.12.

Which relative growth does the source give for `COc1ccccc1-c1ccc2c(c1)O[C@@H](CN(C)C(=O)c1cccnc1)[C@@H](C)CN([C@H](C)CO)S2(=O)=O` here?
Its relative growth is 0.999.

How did the relative growth turn out when `CCNC(=O)C[C@H]1CC[C@H](NC(=O)C2CC2)[C@@H](CO)O1` was run?
The relative growth was 0.97.

Which relative growth does the source give for `Cc1nc2c(cc1C(=O)NN)c(=O)n(C)c(=O)n2C` here?
The relative growth was 0.954.

For `C[C@@H]1ON(c2ccc(C(=O)OC(C)(C)C)cc2)[C@H](c2ccc(O)cc2)[C@H]1C(=O)N1C(=O)OC[C@H]1Cc1ccccc1`, which relative growth is on record?
The relative growth was 0.935.

Which relative growth does the source give for `C[C@H]1CN([C@@H](C)CO)S(=O)(=O)c2ccc(C#CCN(C)C)cc2O[C@H]1CN(C)C(=O)c1ccccc1F` here?
The relative growth was 1.13.

Which relative growth does the source give for `O=C(CCCN1CCC(O)(c2ccc(Cl)cc2)CC1)c1ccc(F)cc1` here?
Its relative growth is 0.725.

With `CC(C)NC(=O)c1cccc2cccc(Sc3ccccc3)c12` as the molecule, how does the relative growth read?
Its relative growth is 1.13.

Which relative growth does the source give for `CC1(C)C=C(C(=O)N2CCOCC2)C(C)(C)N1` here?
Its relative growth is 0.984.
